The record followed here is EP4810052A2, “HCRHR2 SELECTIVE POLYPEPTIDES” (Gubra A/S, priority 2023, dated 2026).

SMILES strings stand for the structures. pEC50: −log10 of the molar value.

Data set [1] can be described thus: Thioflavin T fibril formation assay of purified peptides. The class given is physicochemical. Conditions: pH 7.5, ThT assay. The protocol:
Thioflavin T fibril formation assay: Peptides were dissolved as 267 µM in 50 mM phosphate buffer pH 7.5 for 2 h at room temperature on a rocking table. The samples were then divided into three replicates of 80 µl/well and mixed with 2 µl/well Thioflavin T (ThT)to a final concentration of 4 µM ThT in a black 384 well microplate with a clear bottom (Greiner #781096). The plate was inserted in a CLARIOstar Plus microplate reader (BMG Labtech) and fibril formation was measured as an increase in fluorescence emission at 480 nm (excitation at 450 nm) during 96 h at 40°C with cycles of 5 min rest and 5 min linearshaking at700 rpm.
Compounds were dissolved to 200 µM (ca 1.0 mg/ml) in 50 mM phosphate buffer with preparation and ThT assay performed as described in the "General procedure for determination of fibril formation of peptides." above. Furthermore, samples were adjusted to pH values as indicated below. Additional co-formulations of compounds with semaglutide were prepared by dissolving compounds to 200 µM in commercially available semaglutide drug product (Ozempic®); these co-formulations were adjusted to pH 7.4.

Data set [2] addresses T1, hCRHR2 (Homo sapiens, UniProt Q13324).
T1 sequence (Q13324 1-411): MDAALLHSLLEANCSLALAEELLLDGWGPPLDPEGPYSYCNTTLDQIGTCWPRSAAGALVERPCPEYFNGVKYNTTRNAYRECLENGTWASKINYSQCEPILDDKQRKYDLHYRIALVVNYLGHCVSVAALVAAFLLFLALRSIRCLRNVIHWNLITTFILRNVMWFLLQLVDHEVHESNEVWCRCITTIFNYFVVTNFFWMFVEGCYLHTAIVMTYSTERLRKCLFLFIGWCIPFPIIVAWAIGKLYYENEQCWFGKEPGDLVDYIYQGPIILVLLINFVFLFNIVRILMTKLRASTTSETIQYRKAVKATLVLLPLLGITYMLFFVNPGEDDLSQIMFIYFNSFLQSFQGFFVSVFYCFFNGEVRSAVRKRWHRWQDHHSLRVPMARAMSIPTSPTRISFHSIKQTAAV
Kind of data set: HTRF cAMP assay, determination of hCRHR2 potency (peptide libraries 5 conc., purified peptides 11 conc.). The class given is cell-based. The text has this: HTRF (CisBio) cAMP assay: The assay technology has thoroughly been described in the CisBio HTRF cAMP assay Kit manual (# 62AM4PEC). Briefly, time resolved fluorescence technic was applied to measure cAMP. This technic is based on a competitive immunoassay using cryptate-labelled anti-cAMP antibody and d2-labeled cAMP. In the absence of cellular cAMP, the anti-cAMP cryptate conjugate may get into proximity to cAMP-d2 conjugate and energy (FRET) can be transferred from cryptate to d2.
CHO-K1 cells stably expressing the human corticotropin-releasing hormone receptor 2 (Eurofins/DiscoverX, Cat #95-0048C2 hCRHR2 stable monoclonal cell lines) were used as cells in suspension, brought to life from frozen cell stocks immediately before assay performance.
Concentration-response evaluation of compounds was performed with 5 concentrations of agonist peptides and EC50 values were calculated by nonlinear regression using sigmoid concentration-response with variable slope.
Concentration-response evaluation of compounds was performed with 11 concentrations of agonist peptides and EC50 values were calculated by nonlinear regression using sigmoid concentration-response with variable slope.
A general note: Time-resolved FRET reads energy transfer from a long-lived donor to a nearby acceptor.

As to `CC[C@H](C)[C@H](N)C(=O)N[C@H](C(=O)N[C@@H](CC(C)C)C(=O)N[C@@H](CO)C(=O)N[C@@H](CC(C)C)C(=O)N[C@@H](CC(=O)O)C(=O)N[C@H](C(=O)N1CCC[C@H]1C(=O)N[C@H](C(=O)NCC(=O)N[C@@H](CC(C)C)C(=O)N[C@@H](CC(C)C)C(=O)N[C@@H](CCC(N)=O)C(=O)N[C@H](C(=O)N[C@@H](CC(C)C)C(=O)N[C@@H](CC(C)C)C(=O)N[C@@H](CCC(=O)O)C(=O)N[C@@H](CCC(N)=O)C(=O)N[C@@H](C)C(=O)N[C@@H](CCCNC(=N)N)C(=O)N[C@@H](C)C(=O)N[C@@H](CCCNC(=N)N)C(=O)N[C@@H](C)C(=O)N[C@@H](C)C(=O)N[C@@H](CCCNC(=N)N)C(=O)N[C@@H](CCC(=O)O)C(=O)N[C@@H](CCC(N)=O)C(=O)N[C@@H](C)C(=O)N[C@H](C(=O)N[C@H](C(=O)N[C@@H](CC(N)=O)C(=O)N[C@@H](C)C(=O)N[C@@H](CCCNC(=N)N)C(=O)N[C@H](C(=O)N[C@@H](CC(C)C)C(=O)N[C@@H](C)C(=O)N[C@@H](CCCNC(=N)N)C(=O)N[C@H](C(N)=O)C(C)C)[C@@H](C)CC)[C@@H](C)O)[C@@H](C)O)[C@@H](C)CC)[C@@H](C)CC)C(C)C)C(C)C` [SEQ ID NO: 1, reference compound], in data set [1], the “Fibrillation (pH 7.5)” value is reported as “No”. In data set [2] (hCRHR1-EC50/hCRHR2-EC50), the “Selectivity ratio (hCRHR1/ hCRHR2)” value amounted to 917. The compound also gave a pEC50 in data set [2] (purified peptides, CHO-K1 cells stably expressing hCRHR2, cAMP HTRF) of 9.62.

By pEC50 is commonly meant the negative decadic logarithm of the EC50, by convention in mol/L. Low readings indicate a high EC50, high ones a low EC50.
